Assay results published in patent US20030099944A1, “Combination therapy involving drugs which target cellular proteins and drugs which target pathogen-encoded proteins” (priority 1998, published 2003).

Assays:
Vero cells = assay: Toxicity by microscopic observation, Vero cells
HEL cells = assay: Cell-cycle progression by FACS analysis, HEL cells; format: cell-based; conditions: 24 hours

Structure (SMILES): CC[C@H](CO)Nc1nc(NCc2ccccc2)c2ncn(C(C)C)c2n1 [Rosco, Roscovitine]
- concentration tolerated without evidence of toxicity (Vero cells): 120 µM
- concentration that blocked cell-cycle progression (HEL cells): ≥ 20 µM
